Results reported in patent publication USRE49361E1, “Fused bicyclic (hetero)aromatic compounds useful for the treatment of cancers” (JAZZ PHARMACEUTICALS IRELAND LIMITED, priority 2014, dated 2023).
Entries after “also recorded” stand apart in the source; their conditions may differ.

Each compound was assayed on C-RAF-mediated ERK activation in B-RAF^WT IPC-298 cells (NRAS^Q61L) (assay: IPC-298 AlphaScreen SureFire pERK1/2 cellular assay). Settings: 1 hour treatment, in comparison to Dabrafenib.
Type: cell-based, human

| Structure (SMILES) | paradoxical activation of MAPK pathway (ERK phosphorylation) relative to Dabrafenib |
| --- | --- |
| O=C1CCc2c(Oc3ccc4c(c3)CC(c3nc(-c5ccccc5)c[nH]3)CO4)ccnc2N1 (stereo not drawn) [Example 3B, 5-[3-(4-phenyl-1H-imidazol-2-yl)chroman-6-yl]oxy-3,4-dihydro-1H-1,8-naphthyridin-2-one] | reduced paradoxical activity |
| O=C1CCc2c(Oc3ccc4c(c3)CC(c3nc(-c5ccccc5)c[nH]3)CO4)ccnc2N1 (stereo not drawn) [Example 3, 5-[3-(4-phenyl-1H-imidazol-2-yl)chroman-6-yl]oxy-3,4-dihydro-1H-1,8-naphthyridin-2-one] | reduced paradoxical activation; also recorded: reduced paradoxical activity |
| O=C1CCc2c(Oc3ccc4c(c3)CC(c3nc(-c5ccccc5)c[nH]3)CO4)ccnc2N1 (stereo not drawn) [Example 3A, 5-[3-(4-phenyl-1H-imidazol-2-yl)chroman-6-yl]oxy-3,4-dihydro-1H-1,8-naphthyridin-2-one] | reduced paradoxical activity |
